Literature values in patent US9163240B2, “SR-BI mutation as a predictor of low progesterone levels and poor fetal viability during pregnancy” (The Johns Hopkins University, priority 2009, dated 2015).

How the values were obtained:
SR-BI RNA = settings: 24 h after stimulation by hCG; cited from earlier work
LDL receptor = settings: early time period after hCG stimulation; cited from earlier work

Substance: hCG: human chorionic gonadotropin (hCG)
- SR-BI RNA levels increase (SR-BI RNA): ~30 fold
- LDL receptor expression (LDL receptor): initially increased but then decreased to low basal levels
